{"source": "paper PMC7034089", "about": "“Synthesis of novel, DNA binding heterocyclic dehydroabietylamine derivatives as potential antiproliferative and apoptosis-inducing agents” (Drug Delivery, 2020)", "system": "HepG2 (liver) cells", "test": "MTT antiproliferative assay, HepG2 cells", "assay_type": "cell-based, human", "details": "normal cells (HUVEC) versus HepG2 IC50", "description": "Compounds L^1−L^10 were evaluated against human cancer cell lines Hela, HepG2, MCF-7, A549, and the normal cell HUVEC with the antiproliferative activities in vitro by MTT assay, and results are summarized as IC50 values in Table 3.\nHela, HepG2, MCF-7, A549, and HUVEC cells were used in the antiproliferative activity assay. Cancer cells were seeded in 96-well plates with a density of 10^4 cells per well, after 12 hours of incubation at 5% CO2 and 37 °C, the culture media was removed and cells were incubated with L^1−L^10 dissolved in DMEM at different concentrations (each concentration repeated 3 times) for 36 h at 5% CO2 and 37 °C. Subsequently, removed the culture media and the new culture medium containing MTT (1 mg/mL) was added, followed by incubating for 4 h to allow the formation of formazan dye (Xia et al., [2015]; Zhao et al., [2018]). After removing the medium, 200 μL DMSO was added to each well to dissolve the formazan crystals. Absorbance was measured at 595 nm in a microplate photometer. Cell viability values were determined (at least three times) according to the following formulae: cell viability (%) = the absorbance of experimental group/the absorbance of blank control group ×100%.", "data": [{"smiles": "COc1cccc2c1C(=O)c1c(O)c3c(c(O)c1C2=O)C[C@@](O)(C(=O)CO)C[C@@H]3O[C@H]1C[C@H](N)[C@H](O)[C@H](C)O1", "note": "[DOX, Doxorubicin, reference compound]", "values": [{"measurement": "security index (SI)", "value": 3.7}]}]}
